Literature values as cited in US20240115576A1, “Caffeine Compositions” (priority 2020, published 2024).

Test system: opioid receptor
Conditions: in vivo

C=CCN1CC[C@]23c4c5ccc(O)c4O[C@H]2C(=O)CC[C@@]3(O)[C@H]1C5 [naloxone, Naloxone]
duration of action: 30 to 60 min
